ChEMBL document CHEMBL1123005, “1-Azacycloalkyl-1,4-benzodiazepin-2-ones with antianxiety-antidepressant actions” (J Med Chem, 1985)

By UniProt entry, the sequences of proteins in these tests, tags left out. Where a name states a change or a piece, a line headed by the entry shows the natural chain unless it says otherwise.
UniProt O09028: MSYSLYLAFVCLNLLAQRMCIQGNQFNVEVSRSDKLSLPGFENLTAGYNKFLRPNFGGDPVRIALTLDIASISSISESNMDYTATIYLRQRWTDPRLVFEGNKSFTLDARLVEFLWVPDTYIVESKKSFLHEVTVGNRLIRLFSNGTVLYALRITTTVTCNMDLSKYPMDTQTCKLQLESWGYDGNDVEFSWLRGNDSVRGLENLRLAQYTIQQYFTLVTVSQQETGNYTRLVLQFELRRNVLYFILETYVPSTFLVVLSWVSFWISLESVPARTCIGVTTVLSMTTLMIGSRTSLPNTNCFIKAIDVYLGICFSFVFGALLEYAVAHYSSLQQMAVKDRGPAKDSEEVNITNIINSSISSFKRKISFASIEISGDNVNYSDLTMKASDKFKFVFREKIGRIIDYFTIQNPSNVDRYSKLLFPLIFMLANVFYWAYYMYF
UniProt P15431: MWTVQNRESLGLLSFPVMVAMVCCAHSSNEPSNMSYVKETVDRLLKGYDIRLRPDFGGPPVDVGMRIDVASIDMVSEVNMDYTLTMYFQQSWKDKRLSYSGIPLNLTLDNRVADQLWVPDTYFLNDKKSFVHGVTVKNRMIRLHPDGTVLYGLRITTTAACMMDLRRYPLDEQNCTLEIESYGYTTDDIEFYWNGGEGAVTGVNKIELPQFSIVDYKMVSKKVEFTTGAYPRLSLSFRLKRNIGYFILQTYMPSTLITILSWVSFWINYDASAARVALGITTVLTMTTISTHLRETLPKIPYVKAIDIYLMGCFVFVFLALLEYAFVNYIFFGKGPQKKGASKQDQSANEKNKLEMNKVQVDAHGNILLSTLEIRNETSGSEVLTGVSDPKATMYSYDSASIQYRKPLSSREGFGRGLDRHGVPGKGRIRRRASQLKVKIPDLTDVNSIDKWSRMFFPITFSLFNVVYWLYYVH
UniProt P18506: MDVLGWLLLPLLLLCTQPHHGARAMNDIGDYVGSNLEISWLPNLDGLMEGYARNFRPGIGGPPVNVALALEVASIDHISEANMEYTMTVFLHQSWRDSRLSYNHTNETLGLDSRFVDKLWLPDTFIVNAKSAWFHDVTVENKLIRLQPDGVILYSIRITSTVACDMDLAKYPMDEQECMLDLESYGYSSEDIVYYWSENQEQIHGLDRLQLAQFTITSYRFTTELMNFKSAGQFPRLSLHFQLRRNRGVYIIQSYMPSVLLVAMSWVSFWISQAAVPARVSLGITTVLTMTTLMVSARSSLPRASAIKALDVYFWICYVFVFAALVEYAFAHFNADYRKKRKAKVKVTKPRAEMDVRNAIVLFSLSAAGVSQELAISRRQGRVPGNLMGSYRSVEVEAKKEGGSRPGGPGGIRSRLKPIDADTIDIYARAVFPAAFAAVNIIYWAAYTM
UniProt P18508: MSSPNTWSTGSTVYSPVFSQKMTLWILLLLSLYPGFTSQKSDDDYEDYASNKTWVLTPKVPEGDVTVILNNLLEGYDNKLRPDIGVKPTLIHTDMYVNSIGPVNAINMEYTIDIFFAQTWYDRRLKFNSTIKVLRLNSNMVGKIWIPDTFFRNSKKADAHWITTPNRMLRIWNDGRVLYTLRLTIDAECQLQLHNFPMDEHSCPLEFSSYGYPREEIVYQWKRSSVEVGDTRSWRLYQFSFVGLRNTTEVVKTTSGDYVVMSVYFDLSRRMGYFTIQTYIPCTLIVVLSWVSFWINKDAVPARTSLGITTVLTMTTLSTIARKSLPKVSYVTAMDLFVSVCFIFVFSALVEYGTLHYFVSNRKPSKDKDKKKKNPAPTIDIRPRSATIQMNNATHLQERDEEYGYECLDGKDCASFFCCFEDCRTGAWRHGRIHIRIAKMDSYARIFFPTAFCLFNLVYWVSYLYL
UniProt P19969: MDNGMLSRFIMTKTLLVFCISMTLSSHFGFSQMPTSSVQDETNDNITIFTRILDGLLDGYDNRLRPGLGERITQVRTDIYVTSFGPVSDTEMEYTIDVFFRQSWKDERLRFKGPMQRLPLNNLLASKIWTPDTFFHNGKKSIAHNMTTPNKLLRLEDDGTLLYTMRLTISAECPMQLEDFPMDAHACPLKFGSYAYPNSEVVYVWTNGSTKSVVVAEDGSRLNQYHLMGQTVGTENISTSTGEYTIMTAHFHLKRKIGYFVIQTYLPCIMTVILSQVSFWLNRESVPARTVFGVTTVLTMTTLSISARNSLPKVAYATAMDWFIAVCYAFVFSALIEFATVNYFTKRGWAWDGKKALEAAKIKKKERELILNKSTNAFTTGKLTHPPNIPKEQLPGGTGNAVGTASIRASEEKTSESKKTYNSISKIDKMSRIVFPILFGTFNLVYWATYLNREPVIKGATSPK
UniProt P23574: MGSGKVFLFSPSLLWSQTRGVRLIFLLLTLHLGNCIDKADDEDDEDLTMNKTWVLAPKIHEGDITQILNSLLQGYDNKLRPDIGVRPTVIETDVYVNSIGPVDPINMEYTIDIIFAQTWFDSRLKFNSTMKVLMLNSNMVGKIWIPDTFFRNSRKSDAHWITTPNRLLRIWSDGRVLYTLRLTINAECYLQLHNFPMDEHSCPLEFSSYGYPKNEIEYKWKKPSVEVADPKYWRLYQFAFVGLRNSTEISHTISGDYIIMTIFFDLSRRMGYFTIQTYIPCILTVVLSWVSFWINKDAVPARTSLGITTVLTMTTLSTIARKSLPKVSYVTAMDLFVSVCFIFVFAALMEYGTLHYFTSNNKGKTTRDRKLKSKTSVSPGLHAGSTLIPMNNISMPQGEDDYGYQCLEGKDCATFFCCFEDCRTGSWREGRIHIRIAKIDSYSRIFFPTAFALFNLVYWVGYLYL
UniProt P23576: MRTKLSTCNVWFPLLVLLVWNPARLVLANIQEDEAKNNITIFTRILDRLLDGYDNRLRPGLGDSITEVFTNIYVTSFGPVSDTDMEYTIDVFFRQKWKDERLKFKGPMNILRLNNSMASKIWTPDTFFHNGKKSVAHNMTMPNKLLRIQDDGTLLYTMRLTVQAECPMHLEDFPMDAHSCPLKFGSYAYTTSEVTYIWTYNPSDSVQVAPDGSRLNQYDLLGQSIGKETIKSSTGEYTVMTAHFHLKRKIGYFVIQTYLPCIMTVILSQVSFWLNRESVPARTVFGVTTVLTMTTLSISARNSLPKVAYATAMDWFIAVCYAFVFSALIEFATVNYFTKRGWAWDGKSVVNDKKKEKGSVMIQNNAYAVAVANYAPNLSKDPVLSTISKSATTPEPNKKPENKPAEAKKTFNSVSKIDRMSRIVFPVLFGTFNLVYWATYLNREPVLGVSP
UniProt P28471: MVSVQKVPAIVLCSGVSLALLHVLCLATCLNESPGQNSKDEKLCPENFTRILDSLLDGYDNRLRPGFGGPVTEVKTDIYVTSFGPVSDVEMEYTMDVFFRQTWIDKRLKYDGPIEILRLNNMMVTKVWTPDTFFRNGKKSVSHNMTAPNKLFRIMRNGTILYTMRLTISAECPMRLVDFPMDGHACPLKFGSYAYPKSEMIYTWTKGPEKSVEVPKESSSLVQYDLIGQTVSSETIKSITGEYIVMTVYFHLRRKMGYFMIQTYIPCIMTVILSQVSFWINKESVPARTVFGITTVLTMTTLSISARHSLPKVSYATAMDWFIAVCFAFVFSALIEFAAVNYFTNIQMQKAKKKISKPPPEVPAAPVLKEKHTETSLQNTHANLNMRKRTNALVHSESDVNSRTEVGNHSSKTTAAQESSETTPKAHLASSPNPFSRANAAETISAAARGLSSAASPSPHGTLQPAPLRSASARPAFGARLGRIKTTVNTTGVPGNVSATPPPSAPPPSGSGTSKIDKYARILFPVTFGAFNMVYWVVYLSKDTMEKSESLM
UniProt P28473: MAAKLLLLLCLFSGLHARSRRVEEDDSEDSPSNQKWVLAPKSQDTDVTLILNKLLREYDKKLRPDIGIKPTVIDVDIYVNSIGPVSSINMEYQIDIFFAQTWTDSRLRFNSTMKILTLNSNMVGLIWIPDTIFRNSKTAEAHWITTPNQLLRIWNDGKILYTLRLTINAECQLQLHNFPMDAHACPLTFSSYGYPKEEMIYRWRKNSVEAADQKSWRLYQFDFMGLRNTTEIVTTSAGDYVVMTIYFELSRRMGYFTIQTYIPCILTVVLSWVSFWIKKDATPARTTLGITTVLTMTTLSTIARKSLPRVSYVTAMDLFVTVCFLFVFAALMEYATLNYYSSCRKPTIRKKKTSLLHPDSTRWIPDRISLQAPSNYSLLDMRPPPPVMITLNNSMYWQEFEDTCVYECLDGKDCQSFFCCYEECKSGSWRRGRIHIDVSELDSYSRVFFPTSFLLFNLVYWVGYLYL
UniProt P30191: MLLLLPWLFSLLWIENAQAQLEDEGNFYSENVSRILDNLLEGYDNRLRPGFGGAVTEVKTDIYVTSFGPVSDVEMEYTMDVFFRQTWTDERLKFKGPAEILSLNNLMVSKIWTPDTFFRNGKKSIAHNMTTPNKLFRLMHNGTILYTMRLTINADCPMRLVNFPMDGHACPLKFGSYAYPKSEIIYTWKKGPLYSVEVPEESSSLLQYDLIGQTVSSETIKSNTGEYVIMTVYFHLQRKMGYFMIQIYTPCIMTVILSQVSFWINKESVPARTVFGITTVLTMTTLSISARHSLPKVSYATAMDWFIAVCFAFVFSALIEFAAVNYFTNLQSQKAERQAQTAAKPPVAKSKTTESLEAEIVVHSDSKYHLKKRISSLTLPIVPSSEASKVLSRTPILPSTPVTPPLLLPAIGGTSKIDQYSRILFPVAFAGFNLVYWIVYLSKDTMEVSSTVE
UniProt P62813: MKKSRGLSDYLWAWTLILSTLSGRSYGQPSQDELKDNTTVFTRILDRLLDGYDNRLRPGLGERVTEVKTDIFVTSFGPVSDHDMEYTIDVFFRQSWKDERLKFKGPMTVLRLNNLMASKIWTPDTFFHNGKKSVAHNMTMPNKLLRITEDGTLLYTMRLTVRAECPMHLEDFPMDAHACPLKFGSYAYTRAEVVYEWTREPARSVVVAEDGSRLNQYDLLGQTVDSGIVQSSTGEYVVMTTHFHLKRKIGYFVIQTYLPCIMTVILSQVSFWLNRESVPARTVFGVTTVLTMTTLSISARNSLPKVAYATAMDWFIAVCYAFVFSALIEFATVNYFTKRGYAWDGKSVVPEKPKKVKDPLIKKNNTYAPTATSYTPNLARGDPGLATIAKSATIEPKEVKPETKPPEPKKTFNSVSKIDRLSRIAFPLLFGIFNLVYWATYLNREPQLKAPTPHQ
UniProt P63079: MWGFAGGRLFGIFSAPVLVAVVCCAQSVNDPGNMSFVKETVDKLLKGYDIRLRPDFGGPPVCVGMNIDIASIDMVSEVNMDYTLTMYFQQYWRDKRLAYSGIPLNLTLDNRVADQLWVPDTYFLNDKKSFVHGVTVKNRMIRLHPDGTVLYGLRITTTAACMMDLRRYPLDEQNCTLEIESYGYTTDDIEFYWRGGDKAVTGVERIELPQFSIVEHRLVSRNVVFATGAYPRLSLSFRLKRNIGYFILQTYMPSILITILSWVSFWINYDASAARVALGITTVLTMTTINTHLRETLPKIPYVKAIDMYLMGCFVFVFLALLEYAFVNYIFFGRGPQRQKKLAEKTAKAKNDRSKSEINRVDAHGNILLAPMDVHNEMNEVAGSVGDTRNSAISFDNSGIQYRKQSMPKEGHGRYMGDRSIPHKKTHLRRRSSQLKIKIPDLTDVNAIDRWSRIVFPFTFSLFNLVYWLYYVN
UniProt P63138: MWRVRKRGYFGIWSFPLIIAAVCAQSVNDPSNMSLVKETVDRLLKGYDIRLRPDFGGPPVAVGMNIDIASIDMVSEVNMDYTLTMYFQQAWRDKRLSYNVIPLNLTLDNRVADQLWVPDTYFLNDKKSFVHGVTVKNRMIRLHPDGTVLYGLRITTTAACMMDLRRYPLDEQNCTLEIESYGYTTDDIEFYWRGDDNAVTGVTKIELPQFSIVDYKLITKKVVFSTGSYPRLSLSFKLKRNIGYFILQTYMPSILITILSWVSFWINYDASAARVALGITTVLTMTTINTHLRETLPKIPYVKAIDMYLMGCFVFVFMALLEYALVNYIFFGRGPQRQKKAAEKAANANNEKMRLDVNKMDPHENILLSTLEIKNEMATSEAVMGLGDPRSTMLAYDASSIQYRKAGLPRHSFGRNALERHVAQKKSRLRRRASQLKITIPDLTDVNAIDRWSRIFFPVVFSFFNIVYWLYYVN
UniProt Q9ES14: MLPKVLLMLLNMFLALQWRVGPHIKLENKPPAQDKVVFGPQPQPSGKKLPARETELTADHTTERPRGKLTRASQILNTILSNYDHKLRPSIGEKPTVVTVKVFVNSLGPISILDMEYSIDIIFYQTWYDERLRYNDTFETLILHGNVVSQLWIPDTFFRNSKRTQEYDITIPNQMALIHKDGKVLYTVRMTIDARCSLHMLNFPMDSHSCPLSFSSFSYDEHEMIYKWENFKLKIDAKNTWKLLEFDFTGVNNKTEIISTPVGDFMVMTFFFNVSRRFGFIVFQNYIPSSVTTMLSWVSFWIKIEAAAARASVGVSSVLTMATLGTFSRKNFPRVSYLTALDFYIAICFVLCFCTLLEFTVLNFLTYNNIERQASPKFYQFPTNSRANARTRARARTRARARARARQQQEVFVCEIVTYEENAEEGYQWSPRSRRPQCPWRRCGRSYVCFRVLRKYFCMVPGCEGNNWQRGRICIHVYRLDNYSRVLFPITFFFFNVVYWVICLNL

Target: GABA-A receptor; anion channel (Rattus norvegicus) (UniProt O09028+P15431+P18506+P18508+P19969+P20236+P23574+P23576+P28471+P28473+P30191+P62813+P63079+P63138+Q91ZM7+Q9ES14)
Test: Binding constant was determined by displacing potential to [3H]-diazepam binding in cerebral cortex homogenates of rat
Type: tissue-based
Outline: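 Wistar rat cerebral cortex homogenate incubated with compound and 2 nM [3H]diazepam at 0 °C for 60 min. Bound label trapped on glass filters and counted by scintillation. Ki = IC50/(1 + L/Kd).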

In the case of `CNC1=Nc2ccc(Cl)cc2C(c2ccccc2)=[N+]([O-])C1` [CHLORDIAZEPOXIDE], the K2 is reported as 0.202 µM.
